ChEMBL document CHEMBL1781881, “Adenosine-derived inhibitors of 78 kDa glucose regulated protein (Grp78) ATPase: insights into isoform selectivity” (J Med Chem, 2011)

Experiment: Inhibition of HSP70 by fluorescence polarization assay

`CNc1nc2c(N)ncnc2n1[C@@H]1O[C@H](COCC(N)=O)[C@@H](O)[C@H]1O` showed a Ki of 1850 nM.
